The results in this text go back to paper PMC6383682 (2019).

In this test the target is EGFR (Homo sapiens, UniProt P00533). The experiment in a line: BLI. On the technique in general: In BLI a coated tip is dipped into the sample, and binding shifts an interference pattern.

The term Kd denotes the concentration at which binding is half-saturated. Lower therefore signals a tighter complex.

B1: nimotuzumab (antibody, V domains shown)
VH: QVQLQQSGAEVKKPGSSVKVSCKASGYTFTNYYIYWVRQAPGQGLEWIGGINPTSGGSNFNEKFKTRVTITADESSTTAYMELSSLRSEDTAFYFCTRQGLWFDSDGRGFDFWGQGTTVTVSS
VL: DIQMTQSPSSLSASVGDRVTITCRSSQNIVHSNGNTYLDWYQQTPGKAPKLLIYKVSNRFSGVPSRFSGSGSGTDFTFTISSLQPEDIATYYCFQYSHVPWTFGQGTKLQIT
In turn, B1 showed a Kd of 0.899 nM.
